Source: ChEMBL document CHEMBL1142242, “Indanylacetic acid derivatives carrying 4-thiazolyl-phenoxy tail groups, a new class of potent PPAR alpha/gamma/delta pan agonists: synthesis, structure-activity relationship, and in vivo efficacy” (J Med Chem, 2007)

Biological target: T1, Peroxisome proliferator-activated receptor delta (Homo sapiens, UniProt Q03181)
T1 sequence (Q03181 whole entry): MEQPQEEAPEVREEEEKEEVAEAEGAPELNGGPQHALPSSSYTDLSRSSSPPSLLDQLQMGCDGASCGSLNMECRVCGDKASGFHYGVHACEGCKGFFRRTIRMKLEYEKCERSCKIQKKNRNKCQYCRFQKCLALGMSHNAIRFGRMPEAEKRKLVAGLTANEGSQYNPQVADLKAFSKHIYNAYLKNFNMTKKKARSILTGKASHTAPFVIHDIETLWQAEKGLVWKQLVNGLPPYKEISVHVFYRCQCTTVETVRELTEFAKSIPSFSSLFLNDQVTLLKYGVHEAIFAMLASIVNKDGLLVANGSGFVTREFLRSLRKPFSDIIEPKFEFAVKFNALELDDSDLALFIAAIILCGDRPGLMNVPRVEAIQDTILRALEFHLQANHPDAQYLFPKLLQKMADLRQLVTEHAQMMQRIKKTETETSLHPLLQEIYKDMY
Test: Agonist activity at human PPAR delta by FRET assay
Type: functional

Work on COc1cc(-c2nccs2)ccc1OCCCOc1ccc2c(c1)CC[C@H]2CC(=O)O yielded an EC50 of 580 pM.
